{"sequences": {"note": "Protein sequences, listed by entry. Tags and fused reporters are not part of them.", "UniProt P32929, whole entry, looked up": "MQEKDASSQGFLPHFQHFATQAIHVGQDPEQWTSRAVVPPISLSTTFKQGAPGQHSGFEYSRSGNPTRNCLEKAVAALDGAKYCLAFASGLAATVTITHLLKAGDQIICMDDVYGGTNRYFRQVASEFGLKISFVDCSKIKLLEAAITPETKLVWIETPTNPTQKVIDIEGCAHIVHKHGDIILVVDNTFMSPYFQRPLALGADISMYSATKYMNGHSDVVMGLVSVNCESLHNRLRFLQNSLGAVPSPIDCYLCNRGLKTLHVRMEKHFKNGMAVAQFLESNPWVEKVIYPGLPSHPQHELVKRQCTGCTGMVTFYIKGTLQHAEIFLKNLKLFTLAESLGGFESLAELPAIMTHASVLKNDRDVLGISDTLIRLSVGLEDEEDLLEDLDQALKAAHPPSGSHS"}, "source": "patent US20150272934A1", "about": "“USE OF CSE INHIBITORS FOR THE TREATMENT OF CUTANEOUS INJURIES OR CONDITIONS AND SLEEP-RELATED BREATHING DISORDERS” (SOVA PHARMACEUTICALS, INC., priority 2012, published 2015)", "biological_target": "human, mouse or rat recombinant CSE (UniProt P32929)", "assay": "CSE In Vitro Assay", "settings": "recombinant CSE 20 ug/ml, 50 uM PLP, DL-homocysteine substrate, 3 hours 37° C.; species of enzyme not given"}
{"molecule": "NN(CCCc1nnn[nH]1)c1nnn[nH]1", "values": [{"measurement": "IC50", "value": "10 to 100", "unit": "µM"}]}
